Among the data in patent publication US9694016B2 (Novartis AG, priority 2013, dated 2017) are IC50 values, retold here.

The chains behind the UniProt entries cited, without tags or fusion partners.
UniProt P04049, whole entry Y340E/Y341E: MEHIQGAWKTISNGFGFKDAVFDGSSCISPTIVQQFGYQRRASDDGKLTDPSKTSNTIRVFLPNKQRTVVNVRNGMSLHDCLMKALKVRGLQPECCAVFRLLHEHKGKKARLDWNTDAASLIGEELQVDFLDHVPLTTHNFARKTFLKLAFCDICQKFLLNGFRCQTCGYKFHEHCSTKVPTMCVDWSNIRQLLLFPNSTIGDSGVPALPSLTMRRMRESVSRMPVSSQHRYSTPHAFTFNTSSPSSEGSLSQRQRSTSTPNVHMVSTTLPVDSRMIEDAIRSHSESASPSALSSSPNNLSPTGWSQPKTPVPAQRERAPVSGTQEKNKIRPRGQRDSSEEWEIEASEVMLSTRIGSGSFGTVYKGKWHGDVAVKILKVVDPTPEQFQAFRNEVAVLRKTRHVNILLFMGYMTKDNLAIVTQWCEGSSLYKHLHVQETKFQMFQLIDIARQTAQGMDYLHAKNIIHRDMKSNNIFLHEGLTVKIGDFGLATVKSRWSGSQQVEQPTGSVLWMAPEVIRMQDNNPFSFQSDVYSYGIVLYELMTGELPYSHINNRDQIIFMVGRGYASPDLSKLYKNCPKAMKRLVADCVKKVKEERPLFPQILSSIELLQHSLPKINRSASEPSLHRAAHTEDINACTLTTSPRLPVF

The first test deals with C-Raf FL (full-length C-Raf protein, Y340E and Y341E activating mutations) (Homo sapiens (Human), UniProt P04049, Y340E/Y341E). Type of test: biochemical. Conditions: AlphaScreen, 60 min pre-incubation, 1 hour reaction; read-out: c-Raf FL IC-50. (Alpha assays give light when donor and acceptor beads are brought close together.)
Consider `Cc1ccc(NC(=O)c2ccnc(C(F)(F)F)c2)cc1-c1cc(N2CCOCC2)nc(N(C)C)n1` [Example 758, N-(3-(2-(dimethylamino)-6-morpholinopyrimidin-4-yl)-4-methylphenyl)-2-(trifluoromethyl)isonicotinamide], for which the IC50 came to 1.2 nM.

For `CCOc1nnc(-c2cc(NC(=O)c3cccc(S(C)(=O)=O)c3)cnc2C)cc1N1CCOCC1` [Example 618, N-(5-(6-ethoxy-5-morpholinopyridazin-3-yl)-6-methylpyridin-3-yl)-3-(methylsulfonyl)benzamide], the IC50 stood at 4.4 nM.

Consider `Cc1ccc(NC(=O)c2ccnc(C(C)(C)C#N)c2)cc1-c1cncc(N2CCOCC2)n1` [Example 531, 2-(2-cyanopropan-2-yl)-N-(4-methyl-3-(6-morpholinopyrazin-2-yl)phenyl)isonicotinamide], for which the IC50 turned out to be 0.8 nM.

As for `Cc1ccc(NC(=O)c2ccnc(C(C)(C)C#N)c2)cc1-c1cc(N2CCOCC2)c(OCCO)nn1` [Example 591, 2-(2-cyanopropan-2-yl)-N-(3-(6-(2-hydroxyethoxy)-5-morpholinopyridazin-3-yl)-4-methylphenyl)isonicotinamide], the IC50 came to 0.6 nM.

In the case of `Cc1ncc(NC(=O)c2ccnc(C(F)(F)F)c2)cc1-c1cc(N2CCOCC2)n2nccc2n1` [Example 798, N-(6-methyl-5-(7-morpholinopyrazolo[1,5-a]pyrimidin-5-yl)pyridin-3-yl)-2-(trifluoromethyl)isonicotinamide], the IC50 amounted to 0.5 nM.

Turning to `CCOc1nnc(-c2cc(NC(=O)c3ccnc(C(F)F)c3)ccc2C)cc1N1CCOCC1` [Example 562, 2-(difluoromethyl)-N-(3-(6-ethoxy-5-morpholinopyridazin-3-yl)-4-methylphenyl)isonicotinamide], the IC50 stood at 0.2 nM.

Take `Cc1ncc(NC(=O)c2cccc(C(F)(F)F)c2)cc1-c1cc(N2CCOCC2)nc(N[C@@H](C)CO)n1` [Example 745, (S)—N-(5-(2-((1-hydroxypropan-2-yl)amino)-6-morpholinopyrimidin-4-yl)-6-methylpyridin-3-yl)-3-(trifluoromethyl)benzamide]: the IC50 stood at 0.7 nM.

`CCn1cc(C(=O)Nc2ccc(C)c(-c3cc4[nH]cnc4c(N4CCOCC4)n3)c2)c(C)n1` [Example 814, 1-ethyl-3-methyl-N-(4-methyl-3-(4-morpholino-1H-imidazo[4,5-c]pyridin-6-yl)phenyl)-1H-pyrazole-4-carboxamide]: the IC50 was found to be 3.1 nM.

As for `CCNc1nc(-c2cc(NC(=O)c3ccnc(C(C)(C)O)c3)ccc2C)cc(N2CCOC[C@H]2C)n1` [Example 712, (R)—N-(3-(2-(ethylamino)-6-(3-methylmorpholino)pyrimidin-4-yl)-4-methylphenyl)-2-(2-hydroxypropan-2-yl)isonicotinamide], the IC50 stood at 6.4 nM.

On to `Cc1ccc(NC(=O)c2ccnc(C(C)(C)O)c2)cc1-c1cc2[nH]cnc2c(N2CCOCC2)n1` [Example 823, 2(2-hydroxypropan-2-yl)-N-(4-methyl-3-(4-morpholino-1H-imidazo[4,5-c]pyridin-6-yl)phenyl)isonicotinamide], for which the IC50 is 0.9 nM.

Still in this test, the particulars now being: AlphaScreen, 60 min pre-incubation, reaction 1 hour at room temperature; read-out: c-Raf FL IC-50.
With `CCn1cc(C(=O)Nc2cnc(C)c(-c3cc(NCCO)nc(N4CCOCC4)c3)c2)cc(C(F)(F)F)c1=O` [Example 1044, 1-ethyl-N-(2′-((2-hydroxyethyl)amino)-2-methyl-6′-morpholino-[3,4′-bipyridin]-5-yl)-6-oxo-5-(trifluoromethyl)-1,6-dihydropyridine-3-carboxamide], the IC50 amounted to 4.67 nM.

For the compound `Cc1ccc(NC(=O)c2ccnc(C(F)(F)F)c2)cc1-c1cnc(OCCO)c(N2CCOCC2)c1` [Example 1002, N-(3-(6-(2-hydroxyethoxy)-5-morpholinopyridin-3-yl)-4-methylphenyl)-2-(trifluoromethyl)isonicotinamide], the IC50 is 0.41 nM.

`Cc1ncc(NC(=O)c2ccnc(C3CC3)c2)cc1-c1cc(NCCO)nc(N2CCOCC2)c1` [Example 1057, 2-cyclopropyl-N-(2′-((2-hydroxyethyl)amino)-2-methyl-6′-morpholino-[3,4′-bipyridin]-5-yl)isonicotinamide]: the IC50 was determined as 0.81 nM.

On to `Cc1ccc(NC(=O)c2ccnc(S(C)(=O)=O)c2)cc1-c1cc(N2CCOCC2)c2nccn2c1` [Example 851], for which the IC50 came to 0.3 nM.

For the compound `Cc1ccc(NC(=O)c2ccnc(C(C)(C)C#N)c2)cc1-c1nc2c(c(N3CCOCC3)n1)CN(C(=O)OC(C)(C)C)CC2` [Example 864, tert-butyl 2-(5-(2-(2-cyanopropan-2-yl)isonicotinamido)-2-methylphenyl)-4-morpholino-7,8-dihydropyrido[4,3-d]pyrimidine-6(5H)-carboxylate], the IC50 worked out at 24 nM.

With `Cc1ccc(NC(=O)c2ccnc(C(C)(F)F)c2)cc1-c1cc(NCCO)nc(N2CCOCC2)c1` [Example 1037, 2-(1,1-difluoroethyl)-N-(3-(2-((2-hydroxyethyl)amino)-6-morpholinopyridin-4-yl)-4-methylphenyl)isonicotinamide], the IC50 came to 0.3 nM.

`Cc1ncc(NC(=O)c2ccnc(C(C)(F)F)c2)cc1-c1cc(C2COCCO2)nc(N2CCOCC2)c1` (stereo not shown) [Example 1166, N-(2′-(1,4-dioxan-2-yl)-2-methyl-6′-morpholino-[3,4′-bipyridin]-5-yl)-2-(1,1-difluoroethyl)isonicotinamide]: the IC50 stood at 0.74 nM.

With `Cc1ccc(NC(=O)c2cnnc(C(F)(F)F)c2)cc1-c1cc(N2CCOCC2)nc(NCCO)c1F` [Example 1007, N-(3-(3-fluoro-2-((2-hydroxyethyl)amino)-6-morpholinopyridin-4-yl)-4-methylphenyl)-6-(trifluoromethyl)pyridazine-4-carboxamide], the IC50 was 1.14 nM.

As for `Cc1ncc(NC(=O)c2cnnc(C(C)(C)C#N)c2)cc1-c1cnc(OCC(F)F)c(N2CCOCC2)c1` [Example 962, 6-(2-cyanopropan-2-yl)-N-(6′-(2,2-difluoroethoxy)-2-methyl-5′-morpholino-[3,3′-bipyridin]-5-yl)pyridazine-4-carboxamide], the IC50 was determined as 3.92 nM.

Consider `Cc1ccc(NC(=O)c2ccnc(C(C)(C)F)c2)cc1-c1cc(NC[C@@H](C)O)nc(N2CCOCC2)n1` [Example 1025, (R)-2-(2-fluoropropan-2-yl)-N-(3-(6-((2-hydroxypropyl)amino)-2-morpholinopyrimidin-4-yl)-4-methylphenyl)isonicotinamide], for which the IC50 is 1.97 nM.

In the case of `Cc1ncc(NC(=O)c2cccc(C(F)(F)F)c2)cc1-c1cnc(OC2CCS(=O)(=O)CC2)c(N2CCOCC2)c1` [Example 1034, N-(6′-((1,1-dioxidotetrahydro-2H-thiopyran-4-yl)oxy)-2-methyl-5′-morpholino-[3,3′-bipyridin]-5-yl)-3-(trifluoromethyl)benzamide], the IC50 came to 0.46 nM.

Regarding `Cc1ccc(NC(=O)c2ccnc(C(C)(C)C#N)c2)cc1-c1nc2c(c(N3CCOCC3)n1)CCNC2` [Example 865, 2-(2-cyanopropan-2-yl)-N-(4-methyl-3-(4-morpholino-5,6,7,8-tetrahydropyrido[3,4-d]pyrimidin-2-yl)phenyl)isonicotinamide], the IC50 stood at 7900 nM.

Staying with this test, now noted: Table 2; AlphaScreen, 1 hour reaction; read-out: c-Raf FL IC-50.
As to `CCOc1ncc(-c2cc(NC(=O)c3cnnc(C(F)(F)F)c3)cnc2C)cc1N1CCOC[C@@H]1C` [Example 286, (S)—N-(6′-ethoxy-2-methyl-5′-(3-methylmorpholino)-[3,3′-bipyridin]-5-yl)-6-(trifluoromethyl)pyridazine-4-carboxamide], the IC50 worked out at 51.9 nM.

On to `CCOc1ncc(-c2cc(NC(=O)c3cnnc(C(C)(C)C#N)c3)ccc2C)cc1N1CCOCC1` [Example 284, 6-(2-cyanopropan-2-yl)-N-(3-(6-ethoxy-5-morpholinopyridin-3-yl)-4-methylphenyl)pyridazine-4-carboxamide], for which the IC50 came out at 0.4 nM.

Consider `Cc1nn(C(C)C)cc1C(=O)Nc1cnc(C)c(-c2cc(N3CCOCC3)c(=O)n(C)c2)c1` [Example 375, N-(1′,2-dimethyl-5′-morpholino-6′-oxo-1′,6′-dihydro-[3,3′-bipyridin]-5-yl)-1-isopropyl-3-methyl-1H-pyrazole-4-carboxamide], for which the IC50 is 43.4 nM.

Take `Cc1ncc(NC(=O)c2cccc(C(F)(F)F)c2)cc1-c1cnc(O[C@H]2CC[C@H](O)CC2)c(N2CCOCC2)c1` [Example 316, N-(6′-(((1r,4r)-4-hydroxycyclohexyl)oxy)-2-methyl-5′-morpholino-[3,3′-bipyridin]-5-yl)-3-(trifluoromethyl)benzamide]: the IC50 was found to be 0.8 nM.

For `Cc1ccc(NC(=O)c2ccnc(C(C)(C)C#N)c2)cc1-c1cnc(OC(F)F)c(N2CCOCC2)c1` [Example 223, 2-(2-cyanopropan-2-yl)-N-(3-(6-(difluoromethoxy)-5-morpholinopyridin-3-yl)-4-methylphenyl)isonicotinamide], the IC50 came out at 0.9 nM.

On to `Cc1ccc(NC(=O)c2cccc(C(F)(F)F)c2)cc1-c1cc(N2CCOCC2)cnn1` [Example 59, N-(4-methyl-3-(5-morpholinopyridazin-3-yl)phenyl)-3-(trifluoromethyl)benzamide], for which the IC50 was 0.4 nM.

With `Cc1ncc(NC(=O)c2cnnc(C(C)(C)C#N)c2)cc1-c1cncc(N2CCOCC2)c1` [Example 296, 6-(2-cyanopropan-2-yl)-N-(2-methyl-5′-morpholino-[3,3′-bipyridin]-5-yl)pyridazine-4-carboxamide], the IC50 worked out at 4.9 nM.

Consider `CCOc1ncc(-c2cc(NC(=O)c3cc(N4CCN(CC)CC4)cc(C(F)(F)F)c3)cnc2C)cc1N1CCOCC1` [Example 257, N-(6′-ethoxy-2-methyl-5′-morpholino-[3,3′-bipyridin]-5-yl)-3-(4-ethylpiperazin-1-yl)-5-(trifluoromethyl)benzamide], for which the IC50 turned out to be 3.5 nM.

Take `Cc1ncc(NC(=O)c2cccc(C(F)(F)F)c2)cc1-c1cnc(OC2CC3(COC3)C2)c(N2CCOCC2)c1` [Example 322, N-(6′-(2-oxaspiro[3.3]heptan-6-yloxy)-2-methyl-5′-morpholino-[3,3′-bipyridin]-5-yl)-3-(trifluoromethyl)benzamide]: the IC50 is 0.5 nM.
